# Screening results from PubChem.
# Yeast UUG start = modulators of yeast start codon fidelity, primary screen, whole organism, S. cerevisiae, single point, plate reader; activity score, % at 18.7 µM; actives 0.13% (n = 350,000); S. cerevisiae UUG-firefly luciferase reporter, luminescence/redox ratio;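 active = replicate mean at a twofold rise or more, about +100% in these data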;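 also: firefly luciferase made from a UUG start codon reports start codon fidelity; reporter light over untreated wells divided by growth signal over untreated wells; some hits fall short of that in this replicate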
# DDE Tn6 FP inh = disrupts Tn6 cyclic peptide binding to fibrin D-Dimer-E complex; P02675; Fibrin DD(E) TRITC-Tn6 fluorescence polarization displacement; inhibition, % at 8.3 µM; 0.21% of 370,000 active;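 active means inhibition above a per-campaign cutoff: mean of compounds within control limits plus 3 SD, cut at about 15% in these data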
# PglD DTNB = inhibitors of Campylobacter jejuni PglD acetyltransferase | purified PglD enzyme, DTNB colorimetric CoA detection | inhibition, % at 12.5 µM | 0.098% of 360,000 active | AID 602405; in the data active means inhibition above about 16%, passing the limit was not always enough
# DDE Tn7 FP inh = DD(E)-Tn7 binding inhibition, primary FP screen; FP displacement of FITC-Tn7 peptide from fibrin DD(E); 0% = median of compound wells per plate; 0.13% of 370,000 active; inhibition, % at 8.3 µM; AID 720508;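 active means inhibition above the mean of compounds falling within the control limits plus 3 SD of them, cut at about 14% in these data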
#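 Assay system: human fibrin DD(E). Input: DD(E) 2 µM final. Medium: Tris buffer with calcium and detergent, pH 7.8. Compound dosing: single point at 8.3 µM. Timing: 10 min plus 3 h, room temperature. Technique: fluorescence polarization of the labelled Tn7 tracer. Read-out: percent inhibition. Replicates: singlicate testing.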
# Tn6 DDE ctr = counter-screen hit for Tn6 peptide-fibrin DD(E) binding disruption. inhibition, % at 8.3 µM. 2% of 680 active. TRITC-Tn6 fluorescence polarization displacement; 0% = median of compound wells, not DMSO. AID 720621. shares compounds with DDE Tn6 FP inh;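 active means inhibition above the mean of test compounds lying between the control limits plus 3 SD of those, cut at about 14% in these data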
# DDE Tn6 confirm = confirmation of inhibitors of Tn6 binding to human fibrin DD(E); shares compounds with DDE Tn6 FP inh; FP displacement of TRITC-Tn6 peptide from DD(E); 0% = per-plate median of test wells; inhibition, % at 8.3 µM; 10% of 680 active;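 active means inhibition above the mean of compounds lying within the control limits plus 3 SD, cut at about 16% in these data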
# A number is an active result; - = inactive; . = no result given. Sampled rows, rich in hits. Any-hit rate of the full collection: about 0.45%.
SMILES,Yeast UUG start,DDE Tn6 FP inh,PglD DTNB,DDE Tn7 FP inh,Tn6 DDE ctr,DDE Tn6 confirm
CCOC(=O)NC(=O)CSc1nc(C)cc(C(F)(F)F)c1C#N,-,15,-,-,-,-
COC(=O)CSc1nc(C)cc(C(F)(F)F)c1C#N,-,-,-,-,.,.
c1cc(-c2ccoc2)n2ccnc2c1,-,23,-,-,-,-
c1cc(-c2ccsc2)n2ccnc2c1,-,-,-,-,.,.
C[C@@H]1CN([C@@H](C)CO)C(=O)c2cc(NC(=O)Nc3ccc4c(c3)OCO4)ccc2O[C@@H]1CN(C)Cc1ccccc1,-,.,-,.,.,.
Cc1ccc(C)c(-n2nnnc2SCC(=O)NNC(=O)c2ccco2)c1,.,20,.,-,-,-
CCC(=O)OC1(C)C(=O)C=C2C=C(CCCC(=O)OC)OC=C2C1=O (stereo not given),-,-,-,-,.,.
CCCCC1=CC2=CC(=O)C(C)(OC(=O)CC)C(=O)C2=CO1 (stereo not given),-,18,-,-,-,-
CC(C)NC(=O)N[C@H]1CC[C@H](CCNC(=O)C2CCCC2)O[C@H]1CO,-,.,-,.,.,.
N#Cc1c(NC(=O)Cn2nc(C(F)(F)F)c3c2CCCC3)sc2c1CCC2,-,-,-,-,.,.
CC1CCc2c(sc(NC(=O)Cn3nc(C(F)(F)F)c4c3CCCCC4)c2C#N)C1 (stereo not given),-,17,-,-,-,-
C[C@H]1CCCCO[C@@H](CN(C)C(=O)Nc2ccc(F)cc2)[C@@H](C)CN([C@@H](C)CO)C(=O)c2cc(NS(C)(=O)=O)ccc2O1,-,.,-,.,.,.
COc1cccc(-c2cnc3c(c2)C(=O)N([C@H](C)CO)C[C@@H](C)[C@@H](CN(C)C(=O)Nc2c(C)noc2C)O3)c1,-,.,-,.,.,.
CCC(C)NC(=O)c1csc2c1CCCCC2 (stereo not given),-,19,-,-,-,-
CC/C(=C\C(=O)c1ccncc1)Nc1ccc(O)cc1,-,46,-,-,-,-
Cc1ccc(NC(=O)/C=C/c2ccc([N+](=O)[O-])s2)cc1,.,18,.,-,-,-
CCC(CC)C(=O)Nc1cccc(C(=O)Nc2ccc(S(=O)(=O)Nc3ccc(C)cc3)cc2)c1,-,19,-,-,-,-
CCC(CC)C(=O)Nc1cccc(C(=O)Nc2ccc(S(N)(=O)=O)cc2)c1,.,-,.,-,.,.
COc1ccccc1CNC(=O)C[C@H]1C[C@H]2c3cc(NC(=O)Cc4ccncc4)ccc3O[C@H]2[C@H](CO)O1,.,.,-,.,.,.
CC(=O)Nc1ccc(C(=O)CSc2nnc(-c3ccc(O)cc3)n2CC2CCCO2)cc1 (stereo not given),-,-,-,-,.,.
CCC(=O)Nc1ccc(NC(=O)CSc2nnc(-c3ccc(O)cc3)n2CC2CCCO2)cc1 (stereo not given),-,20,-,-,-,-
O=c1oc2ccccc2cc1C1=Nn2c(nnc2-c2cccnc2)SC1,-,15,-,-,-,-
O=C(CN1C2CCCC1CC(NC(=O)C1CCCCC1)C2)NCc1ccc(F)cc1 (stereo not given),-,16,-,-,-,-
O=C(CN1C2CCCC1CC(NC(=O)C1CCCCC1)C2)Nc1ccccc1C(F)(F)F (stereo not given),-,-,-,-,.,.
CNc1nc(Cl)c(SC)c(NCc2cccc(OC)c2)n1,-,17,-,-,-,-
